This note sets out measurements from ChEMBL document CHEMBL3877300, “Design, synthesis, docking studies and biological evaluation of novel dihydro-1,3,5-triazines as human DHFR inhibitors” (Eur J Med Chem, 2017).

The nature of this experiment: Antitumor activity against human A549 cells xenografted in BALB/c nude mouse assessed as tumor volume at 2 mg/kg, ip administered 14 times in 22 days measured on day 18 post dose (reference value: 692.11 +/- 102.17 mm3). The format is functional. For orientation: In xenograft studies the graft and the host belong to different species.

As for `CN(Cc1cnc2nc(N)nc(N)c2n1)c1ccc(C(=O)N[C@@H](CCC(=O)O)C(=O)O)cc1` [METHOTREXATE], the Activity came out at 335.97 mm3.
